Literature values as cited in patent publication US20150272935A1, “Use of a Factor Xa Inhibitor for Treating and Preventing Bleeding Events And Related Disorders in Patients Having Sensitivity to Vitamin K Antagonists Used As Anticoagulants” (priority 2014, published 2015).

Protein sequences, listed by entry. Tags and fused reporters are not part of them. Residues count along the entry.
UniProt P00742, 41-179 partner limits assumed: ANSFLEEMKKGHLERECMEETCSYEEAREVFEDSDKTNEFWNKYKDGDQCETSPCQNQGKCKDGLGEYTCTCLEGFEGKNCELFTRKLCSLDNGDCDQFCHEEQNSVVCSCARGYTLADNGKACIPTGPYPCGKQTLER
UniProt P00742, 235-488 limits assumed: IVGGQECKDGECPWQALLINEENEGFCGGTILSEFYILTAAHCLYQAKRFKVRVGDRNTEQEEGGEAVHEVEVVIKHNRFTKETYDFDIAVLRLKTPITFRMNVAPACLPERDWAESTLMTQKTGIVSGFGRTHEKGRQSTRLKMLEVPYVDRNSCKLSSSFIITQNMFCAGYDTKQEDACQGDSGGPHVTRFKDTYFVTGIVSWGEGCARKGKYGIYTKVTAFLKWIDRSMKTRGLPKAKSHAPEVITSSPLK

Molecular target: free FXa (Homo sapiens, UniProt P00742)
Details: selectivity

more potent inhibition of FXa than other biologically relevant serine proteases: > 10,000 fold
Compound: CN1CCc2nc(C(=O)N[C@@H]3C[C@@H](C(=O)N(C)C)CC[C@@H]3NC(=O)C(=O)Nc3ccc(Cl)cn3)sc2C1.Cc1ccc(S(=O)(=O)O)cc1 [Edoxaban]
